# Source: patent US20200354426A1 (MEDIMMUNE LIMITED, priority 2016, published 2020)
# By UniProt entry, the sequences of proteins in these tests, tags left out. Residues count along the entry.
# UniProt P43220, 24-463: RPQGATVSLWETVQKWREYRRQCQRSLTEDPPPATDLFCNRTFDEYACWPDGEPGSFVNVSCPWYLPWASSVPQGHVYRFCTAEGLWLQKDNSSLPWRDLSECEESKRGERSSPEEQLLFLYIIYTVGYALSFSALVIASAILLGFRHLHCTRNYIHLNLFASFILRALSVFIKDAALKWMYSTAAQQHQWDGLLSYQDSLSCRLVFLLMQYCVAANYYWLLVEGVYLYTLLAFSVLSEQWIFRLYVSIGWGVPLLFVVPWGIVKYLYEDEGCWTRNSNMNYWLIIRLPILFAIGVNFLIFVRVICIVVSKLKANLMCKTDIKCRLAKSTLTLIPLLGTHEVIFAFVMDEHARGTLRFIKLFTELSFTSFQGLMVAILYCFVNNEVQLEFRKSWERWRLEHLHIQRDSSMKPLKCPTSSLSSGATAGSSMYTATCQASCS
# Key:
# [1] = Stability testing of peptides in plasma; format: in vitro ADME; settings: human plasma, 37° C., 24 h
# Method: The stability in plasma of the peptideS […], […], […] and […] was determined as follows. […] The spiked plasma samples were gently mixed and allowed to equilibrate for about 5 minutes before start of experiment. The plasma samples were incubated for 48 hours in a GalaxyR CO2 incubator at 37° C. […] The samples were stored at -70° C. until analysis. Plasma samples were assayed as follows. […] After mixing and centrifugation, 100 μl the supernatant was transferred to a new plate and 1 μl was injected onto an analytical column. The analysis was performed using a μLC-system ([…]) coupled to a medium high resolution mass spectrometer (Perkin Elmer PenTOF) with positive electrospray ionisation. […] Flow: 0.1 ml/min using a slow reversed phase gradient. […] Cleavage products arise from the action of the protease DPP IV in plasma. Both the degradation of the peptides and formation of peptide products were reported in percentage of the initial peptide concentration. Peaks were integrated and % remaining peptide was calculated: […] Levels of deamidation and DPP IV cleavage were low for […] and […].
# [2] = system: overweight or obese subjects with type 2 diabetes mellitus; test: Phase 1/2 multiple-ascending-dose study of G933, Cohorts 1-6 (efficacy, PK, safety); format: in vivo, human
# Method: Approximately 75 overweight or obese subjects with relatively well controlled type 2 diabetes mellitus (T2DM) are enrolled to participate in the study. The enrolled subjects meet the following inclusion and exclusion criteria.
# Part A consists of 3 cohorts.
# Part B consists of 1 cohort.
# The initial dose is 100 μg.
# Approximately 32 overweight or obese subjects with relatively well controlled type 2 diabetes mellitus (T2DM) are enrolled to participate in the study. The enrolled subjects meet the inclusion and exclusion criteria described in Example 5 with the following exceptions:
# Inclusion Criteria: • Cohort 5 and 6 subjects must be willing and able to self-administer daily subcutaneous (SC) injections following an initial self-injection of placebo (or normal saline) during the screening period.
# A randomized, double-blind, multiple-ascending dose study is performed. This study consists of 2 cohorts: cohort 5 and cohort 6. […] Cohorts 5 and 6 have approximately 32 subjects total and are run in parallel.
# The study consists of an inpatient up-titration evaluation period beginning on Day 3 for both Cohorts 5 and 6 and an outpatient follow-up period. The first 4 days and the final day of dosing at 300 μg […].
# Subjects are admitted to the clinic as described in Example 5 for Cohorts 1-4. […] Subjects have a second inpatient period for the initiation of the 300 μg dose ending on the fourth day at that dose followed by at-home self administration.
# Additional time points include before commencing the 300 μg dose (Day 16 for Cohort 5 and Day 11 for Cohort 6) and at the end of dosing (Day 22 for Cohort 5 and Day 17 for Cohort 6). The MMT are performed as described in Example 5.
# [3] = target: Human GLP1R (Homo sapiens, UniProt P43220); settings: calculated from variation in cAMP generation with HSA concentration
# [4] = based on monkey AUC data
substance,measurement,setting,value
L-Histidyl-L-seryl-L-glutaminylglycyl-L-threonyl-L-phenylalanyl-L-threonyl-L-seryl-L-alpha-aspartyl-(N6-[N-(1-oxohexadecyl)-L-gamma-gutamyl])L-lysy-L-sery-L-alpha-glutamyl-L-tyrosyl-L-leucyl-L-alpha-aspartyl-L-seryl-L-alpha-glutamyl-L-arginyl-L-alanyl-L-arginyl-L-alpha-L-aspartyl-L-phenylalanyl-L-valyl-L-alanyl-L-tryptophyl-L-leucyl-L-alpha-glutamyl-L-alanylglycylglycine [Peptide G933],% DPP cleaved product/+1 DPP cleaved product,[1],<1%
same,vomiting events,[2]; Cohort 1,no vomiting events were reported
same,active patients with vomiting events,[2]; Cohort 2,two
same,vomiting events,[2]; Cohort 2,three
same,active patients with vomiting events,[2]; Cohort 3,three
same,vomiting events,[2]; Cohort 3,thirteen
same,patients with decreased appetite,[2]; Cohort 3 (six patients),85.7%
same,systolic or diastolic blood pressure,[2]; Cohort 4,No increase
same,patients who vomited,[2]; Cohort 4 (8 patients),32.0%
same,patients with nausea,[2]; Cohort 4 (13 patients),52.0%
same,Subject with At lease one G933-related event,"[2]; Cohort 4, 200 μg, N = 25",20 (80.0%)
same,Subject with At least one G933-related serious event,"[2]; Cohort 4, 200 μg, N = 25",0
same,Subject with At least one event,"[2]; Cohort 4, 200 μg, N = 25",22 (88.8%)
same,Subject with At least one event leading to discontinuation of G933,"[2]; Cohort 4, 200 μg, N = 25",3 (12.0%)
same,Subject with At least one event of ≥ grade 3 severity,"[2]; Cohort 4, 200 μg, N = 25",0
same,Subject with At least one serious event,"[2]; Cohort 4, 200 μg, N = 25",0
same,Subject with Death (grade 5 severity),"[2]; Cohort 4, 200 μg, N = 25",0
same,increase in heart rate,"[2]; Cohort 4, Day 13",12.8 bpm
same,increase in heart rate,"[2]; Cohort 4, Day 41",6.9 bpm
same,patients with nausea,[2]; Cohort 5 (3 patients),27.3%
same,patients with vomiting,[2]; Cohort 5 (3 patients),27.3%
same,heart rate increase from baseline,"[2]; Cohort 5, 22 days administration",approximately 7.6 BPM
same,patients with vomiting,[2]; Cohort 6 (1 patient),8.3%
same,patients with nausea,[2]; Cohort 6 (5 patients),41.7%
same,heart rate increase from baseline,"[2]; Cohort 6, 17 days administration",approximately 5.9 BPM
same,systolic or diastolic blood pressure,[2]; Cohorts 1-3,No significant change
same,patients with nausea,[2]; Cohorts 1-3 (6 patients),31.6%
same,patients with vomiting,[2]; Cohorts 1-3 (n=5),26%
same,patients with cardiac adverse events,[2]; Cohorts 1-3 (seven patients),36.8%
same,patients with gastrointestinal adverse events,[2]; Cohorts 1-3 (thirteen patients),68.4%
same,samples confirmed positive for anti-G933 antibody,"[2]; Cohorts 1-3, post baseline",one
same,half life,"[2]; Cohorts 1-3, repeat dosing",approximately 11 hours
same,ambulatory systolic/diastolic blood pressure (SBP/DBP),[2]; Cohorts 5 and 6,no increase from baseline
same,rate of vomiting,[2]; Cohorts 5 and 6 together,16%
same,rate of nausea,[2]; Cohorts 5 and 6 together (8/24),33%
same,half-life,"[2]; dose range 100-300 μg, all cohorts",8 to 11 h
same,increase in pulse rate,[2]; each of Cohorts 1-3,about 10 bpm
same,Between-subject variability in Cmax,[2]; larger Cohort 4,40-50%
same,Between-subject variability in Cmax,[2]; smaller cohorts,20-30%
same,free peptide at 4.4% HSA,[3],0.29%
same,safety margin at the maximum proposed human dose of 2000 μg,[4],0.8
